Laboratory results from PMC6590375 (Journal of Clinical Pharmacology, 2019).

Format: in vivo
Conditions: both, human, plasma, oral, 15 mg

CC[C@@H]1CN(C(=O)NCC(F)(F)F)C[C@@H]1c1cnc2cnc3[nH]ccc3n12 [Upadacitinib]
half-life: 10.4 ± 11.2 h
